This assay deals with T1, SHP-1 from cell lysates (UniProt P29350).
T1 construct: Detected on the blot with mouse anti-SHP-1
Nature of the assay: GST pull-down from cell lysates, Western blot with anti-SHP-1. Here is the method: To determine if the cytoplasmic domain of Siglec-10 binds SHP-1 and SHP-2 in cell lysates, 10 μg of GST fusion protein +/−tyrosine phosphorylation were incubated with 300 μl of cell lysate (Triton-X-100-soluble fraction 5×10⁷ unstimulated cells) at 4° C. overnight. The GST fusion protein complexes were captured with 50 μl of glutathione-sepharose beads (Amersham Pharmacia Biotech) for 1 hr at 4° C. The beads were then incubated with Jurkat cell lysates. The beads were washed three times with ice cold lysis buffer, and bound proteins were eluted in SDS reducing sample buffer and resolved by electrophoresis on an SDS-polyacrylamide gel. The separated proteins were transferred to nitrocellulose by standard western blotting techniques. The blots were then stained for proteins containing phosphorylated tyrosines using anti-P-Y HRP-conjugated antibody (Clone 4G10, Upstate Biotechnology, Lake Placid, N.Y.). Blots were then stripped and stained with either mouse anti-SHP-1 (Transduction Laboratories, Lexington, Ky.) or mouse anti-SHP-2 (Transduction Laboratories) followed by an HRP-conjugated secondary antibody (goat anti-mouse, Biosource Int., Camarillo, Calif.) Stained proteins were imaged by adding a chemiluminescent detection reagent (Renaissance, NEN Bio Products, Boston, Mass.) and exposing to film (Kodak).
For orientation: Immunoblotting shows a protein as a band on a membrane.

B1: Y667F mutant of the GST-SIGLEC-BMS-L3 cytoplasmic tail, as used in the SHP pull-down (other)
chain: MSPILGYWKIKGLVQPTRLLLEYLEEKYEEHLYERDEGDKWRNKKFELGLEFPNLPYYIDGDVKLTQSMAIIRYIADKHNMLGGCPKERAEISMLEGAVLDIRYGVSRIAYSKDFETLKVDFLSKLPEMLKMFEDRLCHKTYLNGDHVTHPDFMLYDALDVVLYMDPMCLDAFPKLVCFKKRIEAIPQIDKYLKSSKYIAWPLQGWQATFGGGDHPPKSDLVPRGSPNSKRRTQTETPRPRFSRHSTILDYINVVPTAGPLAQKKATPNSPRTPLPPGAPSPESKKNQKKQYQLPSFPEPKSSTQAPESQESQEELHFATLNFPGVRPRPEARMPKGTQADYAEVKFQ
modifications: tyrosine phosphorylated (GST fusion protein +/- tyrosine phosphorylation); the phosphorylated sites are not listed
notes: The same construct as m3, as used in the pull-down from cell lysates; also called Y667F mutant sample; L3cyto-Y667F
For B1, the binding result is listed as “no binding”.

(Values after patent US20030036631A1 (published 2003).)
